# Cyclic peptide permeability, from CycPeptMPDB

Source: CycPeptMPDB (Li et al. 2023), which took these values from Townsend et al. 2020, doi:10.26434/chemrxiv.13335941.v1.

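Conditions beyond the assay type are not listed; see the original paper. Other peptides of the study may be missing here. Entries at the database's floor value (log10 P of -10) are not listed.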

PAMPA measures passive passage through an artificial lipid membrane. Permeability is given as log10 of P in cm/s; higher (less negative) is more permeable.

The entry for CC(C)C[C@@H]1NC(=O)[C@@H]2CCCN2C(=O)C[C@H](Cc2ccccc2)NC(=O)[C@@H](CC(C)C)N(C)C(=O)C[C@H](Cc2ccccc2)NC(=O)[C@H](Cc2ccccc2)NC1=O lists PAMPA -5.72 (log10 cm/s).
The entry for CC(C)C[C@@H]1C(=O)N[C@@H](Cc2ccccc2)C(=O)N2CCC[C@H]2C(=O)N[C@H](C)C(=O)N(Cc2ccccc2)CC(=O)N(Cc2ccccc2)CC(=O)N2CCC[C@H]2C(=O)N1C lists PAMPA -6.12 (log10 cm/s).
The entry for CC(C)C[C@@H]1C(=O)N[C@@H](Cc2ccccc2)CC(=O)N2CCC[C@@H]2C(=O)N(Cc2ccccc2)CC(=O)N[C@@H](Cc2ccccc2)C(=O)N2CCC[C@@H]2C(=O)N[C@@H](Cc2ccccc2)CC(=O)N1C lists PAMPA -5.79 (log10 cm/s).
The entry for CCCN1CC(=O)N(Cc2ccccc2)CC(=O)N(Cc2ccccc2)CC(=O)N2CCC[C@H]2C(=O)N(Cc2ccccc2)CC(=O)N[C@@H](Cc2ccccc2)C(=O)N2CCC[C@@H]2C1=O lists PAMPA -6.28 (log10 cm/s).
The entry for CCCN1CC(=O)N(C)[C@H](CC(C)C)C(=O)N[C@@H](Cc2ccccc2)CC(=O)N2CCC[C@@H]2C(=O)N(Cc2ccccc2)CC(=O)N[C@@H](Cc2ccccc2)C(=O)N2CCC[C@@H]2C1=O lists PAMPA -5.74 (log10 cm/s).
The entry for CCCN1CC(=O)N[C@H](CC(C)C)C(=O)N[C@@H](Cc2ccccc2)CC(=O)N2CCC[C@@H]2C(=O)N[C@@H](CC(C)C)C(=O)N[C@@H](Cc2ccccc2)C1=O lists PAMPA -6.11 (log10 cm/s).
The entry for CC(C)C[C@H]1NC(=O)[C@@H]2CCCN2C(=O)C[C@H](Cc2ccccc2)NC(=O)CN(Cc2ccccc2)C(=O)[C@H](C)N(C)C(=O)[C@H](Cc2ccccc2)NC1=O lists PAMPA -6.07 (log10 cm/s).
The entry for CC(C)C[C@@H]1C(=O)N[C@@H](Cc2ccccc2)CC(=O)N2CCC[C@H]2C(=O)N(Cc2ccccc2)CC(=O)N[C@@H](Cc2ccccc2)C(=O)N(C)[C@H](C)C(=O)N1C lists PAMPA -5.54 (log10 cm/s).
The entry for CC(C)C[C@@H]1C(=O)N(Cc2ccccc2)CC(=O)N2CCC[C@H]2C(=O)N(Cc2ccccc2)CC(=O)N[C@@H](Cc2ccccc2)C(=O)N2CCC[C@@H]2C(=O)N[C@@H](Cc2ccccc2)CC(=O)N1C lists PAMPA -5.74 (log10 cm/s).
The entry for CC(C)C[C@H]1NC(=O)[C@@H](C)NC(=O)[C@H](Cc2ccccc2)NC(=O)CN(Cc2ccccc2)C(=O)[C@H]2CCCN2C(=O)C[C@H](Cc2ccccc2)NC1=O lists PAMPA -5.54 (log10 cm/s).
The entry for CCCN1CC(=O)N(Cc2ccccc2)CC(=O)N(Cc2ccccc2)CC(=O)N2CCC[C@H]2C(=O)N(Cc2ccccc2)CC(=O)N[C@@H](Cc2ccccc2)C(=O)N2CCC[C@H]2C1=O lists PAMPA -5.78 (log10 cm/s).
The entry for CCCN1CC(=O)N[C@H](CC(C)C)C(=O)N[C@@H](Cc2ccccc2)CC(=O)N2CCC[C@H]2C(=O)N(C)[C@H](CC(C)C)C(=O)N[C@@H](Cc2ccccc2)C1=O lists PAMPA -5.67 (log10 cm/s).
The entry for CC(C)C[C@H]1NC(=O)[C@H]2CCCN2C(=O)C[C@H](Cc2ccccc2)NC(=O)CN(Cc2ccccc2)C(=O)[C@H](C)N(C)C(=O)[C@H]2CCCN2C(=O)[C@H](Cc2ccccc2)NC1=O lists PAMPA -6.24 (log10 cm/s).
The entry for CC(C)C[C@H]1NC(=O)[C@H]2CCCN2C(=O)C[C@H](Cc2ccccc2)NC(=O)CN(Cc2ccccc2)C(=O)[C@@H](C)N(C)C(=O)[C@H](Cc2ccccc2)NC1=O lists PAMPA -5.99 (log10 cm/s).
The entry for CC(C)C[C@@H]1NC(=O)CN(Cc2ccccc2)C(=O)[C@@H](C)NC(=O)[C@H]2CCCN2C(=O)[C@H](Cc2ccccc2)NC(=O)[C@H](CC(C)C)N(C)C(=O)[C@H]2CCCN2C1=O lists PAMPA -5.53 (log10 cm/s).
The entry for CC(C)C[C@@H]1NC(=O)[C@H]2CCCN2C(=O)[C@@H](CC(C)C)N(C)C(=O)CN(Cc2ccccc2)C(=O)C[C@H](Cc2ccccc2)NC(=O)[C@H]2CCCN2C(=O)[C@H](Cc2ccccc2)NC1=O lists PAMPA -6.45 (log10 cm/s).
The entry for CCCN1CC(=O)N(Cc2ccccc2)CC(=O)N[C@H](CC(C)C)C(=O)N2CCC[C@@H]2C(=O)N(Cc2ccccc2)CC(=O)N[C@@H](Cc2ccccc2)C(=O)N2CCC[C@H]2C1=O lists PAMPA -5.64 (log10 cm/s).
The entry for CC(C)C[C@@H]1C(=O)N[C@@H](Cc2ccccc2)C(=O)N2CCC[C@H]2C(=O)N[C@H](C)C(=O)N(Cc2ccccc2)CC(=O)N[C@H](CC(C)C)C(=O)N2CCC[C@H]2C(=O)N1C lists PAMPA -5.61 (log10 cm/s).
The entry for CCCN1CC(=O)N(Cc2ccccc2)CC(=O)N[C@@H](Cc2ccccc2)CC(=O)N2CCC[C@H]2C(=O)N(Cc2ccccc2)CC(=O)N[C@@H](Cc2ccccc2)C(=O)N2CCC[C@H]2C1=O lists PAMPA -5.72 (log10 cm/s).